The term inhibition denotes the change of the read-out against control, counted positive when it falls.

Where “and” joins values, the source holds several entries; their conditions need not be identical. Identical values can stand only once. The entries are a selection whose mix differs from that of the whole data set. Calls of active or inactive are those of the source.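 The calls were made as follows: active = inhibition at or above 50% relative to wild type and mutant plate controls; inactive = inhibition below 50%.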

This experiment in a line: inhibitors of Chlamydomonas gravitaxis, primary screen, whole organism, Chlamydomonas reinhardtii, WT vs cilia-less mutant, absorbance, 96-well (AID 463189).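 Also: 0% = wild type cc124 cells in DMSO and 100% = ciliumless bld1 mutant cells.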 To be noted: OD600 absorbance, 2 days, at 10 µM, active compounds read high.
As to `Cc1cccc(OCC(=O)OC2CN3CCC2CC3)c1` (stereo not drawn), the inhibition was inactive: -5.52%. `CN(C(=O)Cc1ccc(Cl)c(Cl)c1)[C@@H]1CC[C@]2(CCCO2)C[C@H]1N1CCCC1`: the inhibition was inactive: -1.85%. For the compound `CN(C(=O)Cc1ccccc1)[C@@H]1CC[C@]2(CCCO2)C[C@H]1N1CCCC1`, the inhibition is inactive: 8.55%.

As for `Cc1ccc(OCC(=O)OC2CN3CCC2CC3)cc1` (stereo not drawn), the inhibition is inactive: -6.96%.

As to `CN(CCCl)Cc1cc(Cl)c(NC2=NCCN2)c(Cl)c1`, the inhibition was inactive: 4.63%. Turning to `CN(C(=O)Cc1ccc(Cl)c(Cl)c1)[C@@H]1CCCC[C@H]1N1CCCC1`, the inhibition was inactive: 1.54%. Take `CN(C(=O)Cc1ccc(Cl)c(Cl)c1)[C@H]1CCCC[C@@H]1N1CCCC1`: the inhibition was inactive: -2.18% and inactive: -6.49%. As to `CN(C(=O)Cc1ccc(Cl)c(Cl)c1)[C@@H]1CCCC[C@@H]1N1CCCC1`, the inhibition is inactive: 6.3%.

Source of the values: PubChem BioAssay AID463189 (University of Pittsburgh Molecular Library Screening Center, 2010).
